Measurements taken from US20260000700A1, “TARGETED LINEAR CONJUGATES COMPRISING POLYETHYLENEIMINE AND POLYETHYLENE GLYCOL AND POLYPLEXES COMPRISING THE SAME” (TARGIMMUNE THERAPEUTICS AG, priority 2022, published 2026).

Key:
[1] = Polyplex size distribution and PDI by DLS; assay type: physicochemical; conditions: triconjugate:poly(IC) polyplex, 0.1875 mg/mL, HBG pH 7.2, N/P 4; for DLS (nm), DTS1070 / PDI, DTS1070: DTS1070 cuvette, samples 2× diluted; for DLS (nm), ZEN2112 (Quartz) / PDI, ZEN2112 (Quartz): ZEN2112 quartz cuvette
[2] = Polyplex ζ-potential (PALS/ELS); assay type: physicochemical; conditions: triconjugate:poly(IC) polyplex, 0.1875 mg/mL, HBG pH 7.2, N/P 4; DTS1070 cuvette, samples 2× diluted
[3] = system: RencaEGFR M1 H cells (high expression of human EGFR); experiment: Plasmid pCMV-hIFNβ delivery, hIFNβ ELISA of medium; conditions: N/P 3 and 4, 24 hours

## LPEI−/−[N3:DBCO]-PEG36-[(NH2)MAL-S]-DUPA
[1]
  DLS (nm), DTS1070: 148 nm
  PDI, DTS1070: 0.153
  DLS (nm), ZEN2112 (Quartz): 154 nm
  PDI, ZEN2112 (Quartz): 0.151
[2]
  ζ- pot (mV), DTS1070: 34.5 mV

## LPEI−/−[N3:DBCO]-PEG36-[S-MAL]-DUPA
[1]
  PDI, DTS1070: 0.153
[2]
  ζ- pot (mV), DTS1070: 24.7 mV

## LPEI−/−[N3:SCO]-PEG36-[MAL-S]-DUPA
[1]
  DLS (nm), DTS1070: 132 nm
  PDI, DTS1070: 0.153
  DLS (nm), ZEN2112 (Quartz): 143 nm
  PDI, ZEN2112 (Quartz): 0.156
[2]
  ζ- pot (mV), DTS1070: 34.0 mV

## LPEI−/−[N3:DBCO]CONH-PEG36-[MAL-S]-DUPA
[1]
  DLS (nm), DTS1070: 133 nm
  PDI, DTS1070: 0.147
  DLS (nm), ZEN2112 (Quartz): 140 nm
  PDI, ZEN2112 (Quartz): 0.120
[2]
  ζ- pot (mV), DTS1070: 34.5 mV

## LPEI−/−[N3:BCN]-PEG36-[MAL-S]-DUPA
[1]
  PDI, DTS1070: 0.214
  DLS (nm), ZEN2112 (Quartz): 145 nm
  PDI, ZEN2112 (Quartz): 0.166
[2]
  ζ- pot (mV), DTS1070: 33.9 mV

## LPEI−/−[N3:DBCO]-PEG36-hEGF
[3]
  IFNβ expression and secretion, linear versus random triconjugate: significant advantage over the respective random delivery vector

## LPEI−/−[N3:CliCr®]-PEG36-DUPA
[1]
  PDI, DTS1070: 0.151
[2]
  ζ- pot (mV), DTS1070: 26.2 mV

## LPEI−/−[N3:DBCO]-PEG36-DUPA
[1]
  DLS (nm), DTS1070: 123 nm
  PDI, DTS1070: 0.138
  DLS (nm), ZEN2112 (Quartz): 140 nm
  PDI, ZEN2112 (Quartz): 0.120
[2]
  ζ- pot (mV), DTS1070: 35.2 mV
